This is an account of results in publication PMC11365428, “Two C-terminal isoforms of Aplysia tachykinin–related peptide receptors exhibit phosphorylation-dependent and phosphorylation-independent desensitization mechanisms” (The Journal of Biological Chemistry, 2024).

For this assay, the target named is T1, apTKRPR-B (Aplysia californica, UniProt A0AAU7STS1).
T1 sequence (A0AAU7STS1 1-447): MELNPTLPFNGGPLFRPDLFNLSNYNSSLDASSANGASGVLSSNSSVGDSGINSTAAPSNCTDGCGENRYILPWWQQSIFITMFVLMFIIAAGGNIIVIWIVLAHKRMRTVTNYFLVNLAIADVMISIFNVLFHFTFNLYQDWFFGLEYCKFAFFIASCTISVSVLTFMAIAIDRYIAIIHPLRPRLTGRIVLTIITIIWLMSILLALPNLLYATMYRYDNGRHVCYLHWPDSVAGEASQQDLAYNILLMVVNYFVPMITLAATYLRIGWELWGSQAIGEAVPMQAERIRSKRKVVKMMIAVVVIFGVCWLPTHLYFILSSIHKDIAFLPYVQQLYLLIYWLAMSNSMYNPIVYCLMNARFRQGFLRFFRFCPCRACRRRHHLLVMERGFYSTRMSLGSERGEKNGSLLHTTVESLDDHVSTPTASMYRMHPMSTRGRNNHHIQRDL
Description: IP1 accumulation assay, CHO-K1 cells transiently expressing apTKRPR-B. It is filed as cell-based. As to the method: To express putative Aplysia receptors transiently in CHO-K1 cells, the cDNAs were subcloned into the pcDNA3.1(+) or pcDNA3.1(+)-FLAG (for ELISA experiments only, see “Cell surface expression analysis by ELISA” section) expression vector. On the day before transfection, the CHO-K1 cells were passaged into 60 mm diameter tissue culture–treated dishes, and the transfection experiments were performed when the cells were grown to 70 to 90% confluence. CHO-K1 cells were transfected with the cDNA plasmid constructs using Turbofect Transfection reagent (Thermo Fisher Scientific, R0531), following the manufacturer’s instructions. […] The DNA/TurboFect mixture dropwise was then added to the dish, and the cells were incubated at 37 °C in a humidified incubator containing 5% CO2 overnight.
On the third day, the activation of the putative receptors was detected by monitoring intracellular IP1 concentration using an IP-One Gq kit (Cisbio, 62IPAPEB) in Tecan Spark. Except for using 0.5x reagent, all other procedures were performed following the manufacturer’s instructions. IP1 accumulation assay measures the accumulation of IP1, which is hydrolyzed from the second messenger, and inositol triphosphate. Inositol triphosphate is generated by the Gαq pathway when a GPCR is activated by an appropriate ligand.

`CC(C)C[C@H](NC(=O)[C@H](Cc1c[nH]cn1)NC(=O)[C@@H]1CCCN1C(=O)[C@@H]1CCC(=O)N1)C(=O)NCC(=O)N[C@@H](Cc1ccccc1)C(=O)N[C@@H](C)C(=O)NCC(=O)N[C@@H](CO)C(=O)N[C@@H](CCCNC(=N)N)C(N)=O` [[Ala^7]apTKRP-2b] gave an EC50 of 234 nM.
